Measured values as given in patent US9555039B2, “Piperidine derivatives and compositions for the inhibition of nicotinamide phosphoribosyltransferase (NAMPT)” (Forma TM, LLC., priority 2011, dated 2017).

Sequences of proteins named here, by UniProt entry; tags and fusion partners are left off.
UniProt P43490, whole entry: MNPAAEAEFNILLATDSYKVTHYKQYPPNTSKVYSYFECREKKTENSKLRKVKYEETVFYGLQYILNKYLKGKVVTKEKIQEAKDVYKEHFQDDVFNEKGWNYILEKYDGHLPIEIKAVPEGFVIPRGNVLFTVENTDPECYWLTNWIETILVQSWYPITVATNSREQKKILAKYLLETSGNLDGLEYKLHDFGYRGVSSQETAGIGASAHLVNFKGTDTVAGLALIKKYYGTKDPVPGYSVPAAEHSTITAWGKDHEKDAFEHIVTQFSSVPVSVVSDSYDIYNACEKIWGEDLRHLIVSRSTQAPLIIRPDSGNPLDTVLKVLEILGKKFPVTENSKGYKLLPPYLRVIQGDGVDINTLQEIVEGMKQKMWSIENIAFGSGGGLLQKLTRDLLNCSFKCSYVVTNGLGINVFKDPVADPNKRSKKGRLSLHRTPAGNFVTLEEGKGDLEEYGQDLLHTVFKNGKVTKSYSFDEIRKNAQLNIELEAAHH

Columns and labels:
A2780 cells = assay: In-vitro cell proliferation assay (SRB, 72 hours); type: cell-based; conditions: read-out: A2780 IC50, sulforhodamine B (SRB) assay
[1] = molecular target: Recombinant His-tagged NAMPT (Homo sapiens, UniProt P43490); assay: Biochemical inhibition assay: NAMPT enzymatic reaction, NMN quantified by mass spectrometry; conditions: read-out: Biochem IC50; 33 nM NAMPT, 1 μM NAM, 100 μM PRPP, 2.5 mM ATP, 30 minutes at room temperature

| Compound | IC50 (A2780 cells) [nM] | IC50 [1] [nM] |
| --- | --- | --- |
| O=C(NCCCCC1CCN(S(=O)(=O)c2ccc(F)c(Cl)c2)CC1)c1cc2cnccc2[nH]1 | 68.5 | 59.8 |
| COc1ccc(S(=O)(=O)N2CCC(CCCCNC(=O)c3cc4cnccc4[nH]3)CC2)cc1C | 7 | 21.6 |
| Cc1cc(F)ccc1S(=O)(=O)N1CCC(CCCCNC(=O)c2cc3cnccc3[nH]2)CC1 | 7.6 | 15.2 |
| COc1ccc(S(=O)(=O)N2CCC(CCCCNC(=O)c3cc4cnccc4[nH]3)CC2)cc1OC | 3.2 | 27.6 |
| CC(C)Oc1ccc(S(=O)(=O)N2CCC(CCCCNC(=O)c3cc4cnccc4[nH]3)CC2)cc1 | 1.9 | 19.3 |
| COc1ccc(S(=O)(=O)N2CCC(CCCCNC(=O)c3cc4cnccc4[nH]3)CC2)cc1F | 7.5 | 24.8 |
| O=C(NCCCCC1CCN(S(=O)(=O)c2ccccc2C(F)(F)F)CC1)c1cc2cnccc2[nH]1 | 5 | 24.5 |
| Cc1cc(S(=O)(=O)N2CCC(CCCCNC(=O)c3cc4cnccc4[nH]3)CC2)ccc1F | 14.7 | 69.6 |
| O=C(NCCCCC1CCN(S(=O)(=O)c2cccc(F)c2)CC1)c1cc2cnccc2[nH]1 | 12.9 | 21.7 |
| Cc1ccc(S(=O)(=O)N2CCC(CCCCNC(=O)c3cc4cnccc4[nH]3)CC2)cc1 | 9.9 | 30.2 |
| O=C(NCCCCC1CCN(S(=O)(=O)c2ccccc2Cl)CC1)c1cc2cnccc2[nH]1 | 7.1 | 21.2 |
| Cc1ccc(S(=O)(=O)N2CCC(CCCCNC(=O)c3cc4cnccc4[nH]3)CC2)cc1F | 15.6 | 30.7 |
| COc1ccc(C)cc1S(=O)(=O)N1CCC(CCCCNC(=O)c2cc3cnccc3[nH]2)CC1 | 1.7 | 27.3 |
| COc1ccc(S(=O)(=O)N2CCC(CCCCNC(=O)c3cc4cnccc4[nH]3)CC2)cc1Cl | 13.7 | 29.3 |
| O=C(NCCCCC1CCN(S(=O)(=O)c2cccc(C(F)(F)F)c2)CC1)c1cc2cnccc2[nH]1 | 62.3 | 76.9 |
| COc1cccc(S(=O)(=O)N2CCC(CCCCNC(=O)c3cc4cnccc4[nH]3)CC2)c1 | 10.7 | 35.3 |
| O=C(NCCCCC1CCN(S(=O)(=O)c2ccccc2F)CC1)c1cc2cnccc2[nH]1 | 6.3 | 7.6 |
| COc1ccc(S(=O)(=O)N2CCC(CCCCNC(=O)c3cc4cnccc4[nH]3)CC2)cc1 | 7.1 | 33.8 |
| Cc1ccc(F)c(S(=O)(=O)N2CCC(CCCCNC(=O)c3cc4cnccc4[nH]3)CC2)c1 | 6.7 | 26.8 |
| Cc1c(F)cccc1S(=O)(=O)N1CCC(CCCCNC(=O)c2cc3cnccc3[nH]2)CC1 | 12.9 | 25.5 |
| N#Cc1ccc(S(=O)(=O)N2CCC(CCCCNC(=O)c3cc4cnccc4[nH]3)CC2)cc1 | 12.7 | 49.6 |
| Cc1ccccc1S(=O)(=O)N1CCC(CCCCNC(=O)c2cc3cnccc3[nH]2)CC1 | 6.7 | 36 |
| O=C(NCCCCC1CCN(S(=O)(=O)c2cc(F)cc(F)c2)CC1)c1cc2cnccc2[nH]1 | 6.9 | 22.5 |
